The source of these data is patent publication US20210040193A1 (BEIJING HANMI PHARMACEUTICAL, published 2021).

By UniProt entry, the sequences of proteins in these tests, tags left out. Chains listed by the source or under a name are the forms on record and can include a tag or linker.
UniProt P15692, other isoform, or with tags, fused parts or gaps limits assumed: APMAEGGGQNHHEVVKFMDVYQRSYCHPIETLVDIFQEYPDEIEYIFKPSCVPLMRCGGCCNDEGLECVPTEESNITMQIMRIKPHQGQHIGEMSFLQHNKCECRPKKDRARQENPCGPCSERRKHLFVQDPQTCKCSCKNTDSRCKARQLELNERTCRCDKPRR

Assay [1] deals with T1, human VEGF (Beijing Sino Biological Inc., Catalog No. 11066-HNAH) (human, UniProt P15692-4 27-191).
T1 construct: Bought recombinant protein; also called Recombinant human VEGF
The experiment in a line: ELISA, human VEGF coated on the plate, anti-human IgG-HRP detection.

Assay [2] addresses T1, human VEGF (Beijing Sino Biological …). The experiment in a line: ELISA, human VEGF coated on the plate, anti-human IgG-HRP detection; control. A general note: In an ELISA, binding on a coated surface is turned into a signal by an enzyme label.

B1: anti PD-1(BJHM)/VEGF(Bevaci) heterodimeric antibody (bispecific antibody, human IgG1, kappa, N297A)
heavy 1: EVNLVESGGGLVQPGGSLRLSCAASGFTFSSYGMSWVRQAPGKGLEWVASISGGGRYTYYPDSMKGRFTISRDNSKNNLYLQMNSLRAEDTAVYYCVYEYFYTMDYWGQGTLVTVSSASTKGPSVFPLAPSSKSTSGGTAALGCLVKDYFPEPVTVSWNSGALTSGVHTFPAVLQSSGLYSLSSVVTVPSSSLGTQTYICNVNHKPSNTKVDKKVEPKSCDKTHTCPPCPAPELLGGPSVFLFPPKPKDTLMISRTPEVTCVVVDVSHEDPEVKFNWYVDGVEVHNAKTKPREEQYASTYRVVSVLTVLHQDWLNGKEYKCKVSNKALPAPIEKTISKAKGQPREPQVYTLPPSRDELTKNQVSLLCLVKGFYPSDIAVEWESNGQPENNYKTTPPVLRSDGSFFLYSKLTVDKSRWQQGNVFSCSVMHEALHNHYTQKSLSLSPGK
light 1: DIVLTQSPATLSLSPGERATLSCRASQSISNNLHWYQQKPGQAPRLLIRFASQSISGIPARFSGSGSGTDFTLTISSLEPEDFAVYFCQQSDNWPLTFGGGTKVEIKRTVAAPSVFIFPPSDEQLKSGTASVVCLLNNFYPREAKVQWKVDNALQSGNSQESVTEQDSKDSTYSLSSTLTLSKADYEKHKVYACEVTHQGLSSPVTKSFNRGEC
heavy 2: EVQLVESGGGLVQPGGSLRLSCAASGYTFTNYGMNWVRQAPGKGLEWVGWINTYTGEPTYAADFKRRFTFSLDTSKSTAYLQMNSLRAEDTAVYYCAKYPHYYGSSHWYFDVWGQGTLVTVSSASTKGPSVFPLAPSSKSTSGGTAALGCLVKDYFPEPVTVSWNSGALTSGVHTFPAVLQSSGLYSLSSVVTVPSSSLGTQTYICNVNHKPSNTKVDKKVEPKSCDKTHTCPPCPAPELLGGPSVFLFPPKPKDTLMISRTPEVTCVVVDVSHEDPEVKFNWYVDGVEVHNAKTKPREEQYASTYRVVSVLTVLHQDWLNGKEYKCKVSNKALPAPIEKTISKAKGQPREPQVYTEPPSRDELTKNQVSLTCLVKGFYPSDIAVEWESNGQPENNYKTTPPVLDSDGSFFLLSVLTVDKSRWQQGNVFSCSVMHEALHNHYTQKSLSLSPGK
light 2: not shown
B1: in assay [1], the binding result was “binds”.

B2: VEGF (G631) monoclonal antibody (antibody, V domains shown)
VH: EVQLVESGGGLVQPGGSLRLSCAASGFTISDYWIHWVRQAPGKGLEWVAGITPAGGYTYYADSVKGRFTISADTSKNTAYLQMNSLRAEDTAVYYCARFVFFLPYAMDYWGQGTLVTVSS
VL: DIQMTQSPSSLSASVGDRVTITCRASQDVSTAVAWYQQKPGKAPKLLIYSASFLYSGVPSRFSGSGSGTDFTLTISSLQPEDFATYYCQQGYGNPFTFGQGTKVEIK
notes: Control monoclonal antibody; Variable regions derived from US20060280747; also called anti-human VEGF antibody VEGF (G631)
Regarding B2, the binding result in assay [2] is recorded as “binds”.

B3: anti-PD-1 (Pembro)/VEGF (G631) heterodimeric antibody (bispecific antibody, human IgG1, kappa, N297A)
heavy 1: QVQLVQSGVEVKKPGASVKVSCKASGYTFTNYYMYWVRQAPGQGLEWMGGINPSNGGTNFNEKFKNRVTLTTDSSTTTAYMELKSLQFDDTAVYYCARRDYRFDMGFDYWGQGTTVTVSSASTKGPSVFPLAPSSKSTSGGTAALGCLVKDYFPEPVTVSWNSGALTSGVHTFPAVLQSSGLYSLSSVVTVPSSSLGTQTYICNVNHKPSNTKVDKKVEPKSCDKTHTCPPCPAPELLGGPSVFLFPPKPKDTLMISRTPEVTCVVVDVSHEDPEVKFNWYVDGVEVHNAKTKPREEQYASTYRVVSVLTVLHQDWLNGKEYKCKVSNKALPAPIEKTISKAKGQPREPQVYTLPPSRDELTKNQVSLLCLVKGFYPSDIAVEWESNGQPENNYKTTPPVLRSDGSFFLYSKLTVDKSRWQQGNVFSCSVMHEALHNHYTQKSLSLSPGK
light 1: EIVLTQSPATLSLSPGERATLSCRASKGVSTSGYSYLHWYQQKPGQAPRLLIYLASYLESGVPARFSGSGSGTDFTLTISSLEPEDFAVYYCQHSRDLPLTFGGGTKVEIKRTVAAPSVFIFPPSDEQLKSGTASVVCLLNNFYPREAKVQWKVDNALQSGNSQESVTEQDSKDSTYSLSSTLTLSKADYEKHKVYACEVTHQGLSSPVTKSFNRGEC
heavy 2: EVQLVESGGGLVQPGGSLRLSCAASGFTISDYWIHWVRQAPGKGLEWVAGITPAGGYTYYADSVKGRFTISADTSKNTAYLQMNSLRAEDTAVYYCARFVFFLPYAMDYWGQGTLVTVSSASTKGPSVFPLAPSSKSTSGGTAALGCLVKDYFPEPVTVSWNSGALTSGVHTFPAVLQSSGLYSLSSVVTVPSSSLGTQTYICNVNHKPSNTKVDKKVEPKSCDKTHTCPPCPAPELLGGPSVFLFPPKPKDTLMISRTPEVTCVVVDVSHEDPEVKFNWYVDGVEVHNAKTKPREEQYASTYRVVSVLTVLHQDWLNGKEYKCKVSNKALPAPIEKTISKAKGQPREPQVYTEPPSRDELTKNQVSLTCLVKGFYPSDIAVEWESNGQPENNYKTTPPVLDSDGSFFLLSVLTVDKSRWQQGNVFSCSVMHEALHNHYTQKSLSLSPGK
light 2: not shown
notes: Heterodimer of two half antibodies; it is not spelled out for this molecule; also called anti-PD-1 (Pembro)/VEGF (G631) heterodimer antibody
With B3, in assay [1], the binding result is “binds”.

B4: anti-PD-1 (BJHM)/VEGF (G631) heterodimeric antibody (bispecific antibody, human IgG1, kappa, N297A)
heavy 1: B1 heavy 1
light 1: B1 light 1
heavy 2: B3 heavy 2
light 2: not shown
Consider B4, for which the binding result in assay [1] was “binds”.
